Experimental findings from patent US9388140B2, “Substituted benzimidazoles” (priority 2011, dated 2016) are described below.

The chains behind the UniProt entries cited, without tags or fusion partners. Where a name states a change or a piece, a line headed by the entry shows the natural chain unless it says otherwise.
UniProt P33981: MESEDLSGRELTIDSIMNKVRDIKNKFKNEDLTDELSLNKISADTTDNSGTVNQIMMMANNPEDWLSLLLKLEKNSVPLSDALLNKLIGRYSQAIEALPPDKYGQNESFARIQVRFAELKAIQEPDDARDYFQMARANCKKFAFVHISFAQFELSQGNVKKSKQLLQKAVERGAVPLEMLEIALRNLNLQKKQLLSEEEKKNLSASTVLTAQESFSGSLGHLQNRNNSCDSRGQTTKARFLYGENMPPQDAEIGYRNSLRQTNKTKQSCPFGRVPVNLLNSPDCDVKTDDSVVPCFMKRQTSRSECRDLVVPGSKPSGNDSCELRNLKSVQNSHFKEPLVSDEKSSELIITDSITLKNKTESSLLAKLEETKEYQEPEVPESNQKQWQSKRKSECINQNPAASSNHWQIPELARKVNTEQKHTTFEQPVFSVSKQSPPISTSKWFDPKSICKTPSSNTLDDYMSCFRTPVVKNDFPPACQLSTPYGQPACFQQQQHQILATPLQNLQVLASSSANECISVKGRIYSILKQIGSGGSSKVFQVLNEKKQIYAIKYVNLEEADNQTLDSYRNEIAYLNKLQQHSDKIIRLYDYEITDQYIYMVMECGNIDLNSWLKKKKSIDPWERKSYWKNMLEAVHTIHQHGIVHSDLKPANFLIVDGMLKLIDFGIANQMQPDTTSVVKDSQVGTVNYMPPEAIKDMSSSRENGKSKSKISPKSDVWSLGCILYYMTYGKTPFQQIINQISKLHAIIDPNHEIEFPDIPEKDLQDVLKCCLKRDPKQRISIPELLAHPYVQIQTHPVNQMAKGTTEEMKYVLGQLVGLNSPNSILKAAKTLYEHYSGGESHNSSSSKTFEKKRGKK

In this test the target is human kinase Mps-1 (Homo sapiens (Human), UniProt P33981). Put plainly: Mps-1 kinase assay (TR-FRET). In kind it is biochemical. The note with it: N-terminally GST-tagged human full length recombinant Mps-1; 10 μM ATP; 1 μM biotinylated peptide substrate; read-out: Mps1 IC50. The protocol:
The human kinase Mps-1 phosphorylates a biotinylated substrate peptide. Detection of the phosphorylated product is achieved by time-resolved fluorescence resonance energy transfer (TR-FRET) from Europium-labelled anti-phospho-Serine/Threonine antibody as donor to streptavidin labelled with cross-linked allophycocyanin (SA-XLent) as acceptor. Compounds are tested for their inhibition of the kinase activity.
N-terminally GST-tagged human full length recombinant Mps-1 kinase (purchased from Invitrogen, Karslruhe, Germany, cat. no PV4071) was used. As substrate for the kinase reaction a biotinylated peptide of the amino-acid sequence […] (C-terminus in amide form, purchased from Biosynthan GmbH, Berlin) was used. […]
The resulting mixture was incubated 1 h at 22° C. to allow the binding of the phosphorylated peptide to the anti-phospho(Ser/Thr)-Europium-antibody. Subsequently the amount of phosphorylated substrate was evaluated by measurement of the resonance energy transfer from the Europium-labelled anti-phospho(Ser/Thr) antibody to the Streptavidin-XLent. Therefore, the fluorescence emissions at 620 nm and 665 nm after excitation at 350 nm was measured in a Viewlux TR-FRET reader (PerkinElmer LAS, Rodgau-Jügesheinn, Germany). […]

Structures are written as SMILES.

As for `COc1ccc(C(C)(O)c2cc(NCCC(F)(F)F)c3ncn(-c4ccc(C(=O)NC5CC5)c(CO)c4)c3c2)cc1F` (racemic) [Example 103B, N-cyclopropyl-4-{6-[(1RS)-1-(3-fluoro-4-methoxyphenyl)-1-hydroxyethyl]-4-[(3,3,3-trifluoropropyl)amino]-1H-benzimidazol-1-yl}-2-(hydroxymethyl)benzamide], the half-maximal inhibitory concentration (IC50) turned out to be 24.2 nM.

The IC50 is the midpoint of a concentration-inhibition curve.
